Earlier results on one substance are cited in publication PMC6162346, “The MALDI-TOF E2/E3 Ligase Assay as Universal Tool for Drug Discovery in the Ubiquitin Pathway” (Cell Chemical Biology, 2018).

In this series the test system is MDM2-p53 interaction. As to conditions: read-out: IC50 to displace p53 from MDM2; ref Khoury and Domling, 2012; cited from earlier work.

As to nutlin-3A, the half-maximal inhibitory concentration (IC50) (usually the concentration needed to halve the response being measured) is 100 to 300 nM.
